Source: US4136193A, “Anti-depressive substituted 1-dimethylaminopropyl-1-phenyl phthalans” (Kefalas A/S, priority 1976, dated 1979)

Test system: 14C-5-HT-uptake in rabbit blood platelets
Assay: Inhibition of 14C-5-HT-uptake in rabbit blood platelets in vitro
Format: cell-based
Conditions: Oryctolagus cuniculus, Platelet, pH 7.2, read-out: C14 5-HT uptake inhibitory concentration IC50
Experimental: Two ml of rabbit platelet-enriched plasma, containing EDTA as an anticoagulant, were incubated with test compound and 2 ml of 0.05 M Na-P-buffer, pH 7.2, for 5 minutes at 37° C. […] The incubation was terminated by transferring the test tubes to an ice bath, and the platelets were isolated by centrifugation (~4000 g, 5 min., 4° C.). After draining, the platelets were gently washed with 4 ml of ice-cold saline, and the remaining radioactivity was determined. The uptake in the test samples was calculated in percent of the uptake in the control group and plotted against the concentration of test compound on semilogarithmic probability paper, from which the IC50-value was determined.

For `CNCCC=C1c2ccccc2CCc2ccccc21` [Nortriptyline, reference compound], the IC50 was 3.3 µM.
